# Results published in BindingDB's records for 16690315.
# The chains behind the UniProt entries cited, without tags or fusion partners. A line that says so, or that is headed by a name, gives the form on record, which may keep a tag or linker. Residues count along the entry.
# UniProt Q99705, 1-353 with tags or gaps: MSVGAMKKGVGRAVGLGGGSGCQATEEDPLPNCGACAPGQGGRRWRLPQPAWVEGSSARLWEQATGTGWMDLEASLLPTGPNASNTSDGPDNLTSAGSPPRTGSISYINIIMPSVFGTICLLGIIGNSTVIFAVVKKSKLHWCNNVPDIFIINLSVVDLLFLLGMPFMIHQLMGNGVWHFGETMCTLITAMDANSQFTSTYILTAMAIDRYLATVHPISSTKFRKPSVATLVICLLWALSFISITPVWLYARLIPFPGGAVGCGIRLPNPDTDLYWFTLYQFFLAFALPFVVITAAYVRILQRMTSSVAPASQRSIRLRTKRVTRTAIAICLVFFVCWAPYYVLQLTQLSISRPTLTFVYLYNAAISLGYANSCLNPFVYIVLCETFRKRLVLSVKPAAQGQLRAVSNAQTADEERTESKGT
# Molecular target: Melanin-concentrating hormone receptor 1 (Homo sapiens, UniProt Q99705)
# Test: Binding affinity to human MCHR1 assessed as inhibition of MCH-mediated calcium ion influx by FLIPR assay
smiles,measurement,value
N#Cc1cccc(-c2ccc(N(C(=O)Nc3cc(Cl)cc(Cl)c3)C3CCN(C4CCCC4)CC3)cc2)c1,Ki,2.5 nM

# This is a selection: effects in other tests are not listed, and their absence says nothing.
